This is a selection; strong and weak results do not stand in their true shares. Calls of active or inactive are those of the source.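 How the source made its calls: active means mean replicate inhibition above about 25%, with every replicate also reaching it (limit read from the data, passing the limit was not always enough); inconclusive means only one of those two criteria met; inactive means neither criterion met.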
These compounds were tested against Protein disulfide-isomerase A6 (Homo sapiens) (UniProt Q15084) (assay: inhibitors of ERp5-driven insulin aggregation, primary screen, biochemical, turbidity, absorbance 650 nm, single point (AID 651711)). Conditions: 90 min, at 9.99 µM, hits give high values.

Sequences of proteins named here, by UniProt entry; tags and fusion partners are left off.
UniProt Q15084, whole entry: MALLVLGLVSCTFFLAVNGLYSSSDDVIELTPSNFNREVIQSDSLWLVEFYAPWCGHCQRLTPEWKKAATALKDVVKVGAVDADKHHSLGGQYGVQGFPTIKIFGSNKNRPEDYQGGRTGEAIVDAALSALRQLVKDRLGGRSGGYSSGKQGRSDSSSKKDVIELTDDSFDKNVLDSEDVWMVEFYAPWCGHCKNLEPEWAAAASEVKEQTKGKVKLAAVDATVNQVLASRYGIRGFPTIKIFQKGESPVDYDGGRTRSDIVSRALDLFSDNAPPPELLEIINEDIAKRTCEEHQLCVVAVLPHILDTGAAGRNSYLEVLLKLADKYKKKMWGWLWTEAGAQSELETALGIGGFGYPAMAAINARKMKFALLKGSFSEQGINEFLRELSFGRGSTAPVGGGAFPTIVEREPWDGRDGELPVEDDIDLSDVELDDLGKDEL

SMILES	inhibition
CCC(=O)N(c1ccccc1)C1(COC)CCN(CCc2cccs2)CC1	inactive: -4.32%
CCC(=O)N(c1ccccc1)C1(COC)CCN(CCn2nnn(CC)c2=O)CC1	inactive: -2.19%

From PubChem BioAssay AID651711 (Broad Institute, 2012)
